Test results taken from patent US20230057788A1, “METHOD OF TREATING CHRONIC MYELOID LEUKEMIA USING PEGYLATED INTERFERON AND TYROSINE KINASE INHIBITOR” (PharmaEssentia Corporation, priority 2021, published 2023).

Assays:
[1] = Nordic CML study group; imatinib in combination with peginterferon alfa-2b; cited from earlier work
[2] = human, in vivo
[3] = test system: BCR-ABL1 transcripts; test: Phase 1 study: molecular response, real-time PCR monitoring of BCR-ABL1 transcripts in CML patients; assay type: in vivo, human; conditions: added to imatinib
[4] = at final visit (1 month after last ropeginterferon alpha-2b)

## peginterferon alfa-2b
[1]
  Discontinuation rate in the combination arm: 60%

## ropeginterferon alfa-2b
[2]
  ALAT elevated, number of patients: 5
  Adverse events grade 4 or 5: ^bAdverse event terms are summarized MedDRA preferred terms; no events grade 4 or 5.
  Anemia, percent of patients: (58%)
  Asthenia, percent of patients: (8%)
  Dizziness, percent of patients: (17%)
  Fatigue, percent of patients: (42%)
  GGT elevated, number of patients: 4
  Headache, percent of patients: (42%)
  Musculoskeletal pain, percent of patients: (25%)
  Neutropenia, number of patients: 6
  New adverse events: No new AEs were reported
  Patients in whom treatment had to be discontinued: 25%
  Patients who completed the study treatment according to protocol: 75%
  Patients with recurrent grade 3 neutropenia (DLT) leading to discontinuation: One
  Thrombocytopenia, percent of patients: (75%)
[3]; after 12 months to final visit
  Percent of patients with decrease in BCR-ABL1: (87.5%)
[3]; after 12 months
  Number of patients with decrease in BCR-ABL1: 8/8^a
  Number of patients with molecular remission <4.5: One
  Percent of patients with decrease in BCR-ABL1: (100%)
  Percent of patients with molecular remission <4.5: (12.5%)
[3]; at 12 months as well as at the final visit, p=0.012
  BCR ABL1 transcript levels compared to the screening visit: significantly lower
[3]; at 18 months, p=0.0125
  Number of patients with an MR 4.5: four
[3]; [4]
  Number of patients with decrease in BCR-ABL1: 8/9
  Number of patients with molecular remission <4.5: 4/9
  Percent of patients with decrease in BCR-ABL1: (88.9%)
  Percent of patients with molecular remission <4.5: (44.4%)
[3]; p=0.128
  Difference of the BCR-ABL1 transcript level between 12 and 18 months of treatment: No significant difference

Marks after values point to notes of the source that are not given here.
